Test in all cases: NCI tumour cell line growth inhibition, 48 h
Experiment [1] concerns SF-539.
In experiment [2] the test system is SK-MEL-28.
Experiment [3] relates to SK-MEL-2.
The test system of experiment [4] is SK-MEL-5.
Experiment [5] relates to SK-OV-3.
For experiment [6], the system named is SN12C.
In experiment [7] the test system is SNB-19.
For experiment [8], the system named is SNB-75.
The subject of experiment [9] is SR.
Experiment [10] deals with SNB-78.

The list shows a part of the results. Cut-off read from the data, not from the text of the source: active = GI50 up to about 1.1 µM and inactive = higher. Only a part of the results of these assays is listed, not drawn at random.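 Tested at 5 concentrations; 48 h exposure; 96-well plates; endpoints linearly interpolated, else capped at highest concentration. Here, GI50 denotes the concentration required for 50% inhibition of growth.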 For some of these results: Measured potencies and affinities stand elsewhere.

`O=[N+]([O-])c1ncn(F)c1[N+](=O)[O-]`: the GI50 in experiment [1], in experiment [2], in [3], in experiment [4], in experiment [5] and in experiment [6] was inactive: > 100 µM throughout. In addition, the GI50 was inactive: > 100 µM in experiment [7], inactive: > 100 µM in experiment [8] and inactive: 59.6 µM in [9].
On to `CCCC[S+](N)(=O)CCC(N)P(=O)(O)O` (stereo not given), for which the GI50 in experiment [2] was inactive: 64 µM; in experiment [3], inactive: > 100 µM; in experiment [4], inactive: > 100 µM; in experiment [5], inactive: > 100 µM; in experiment [6], inactive: > 100 µM; in experiment [7], inactive: > 100 µM. The values for the GI50 in [8] and in experiment [9] were inactive: > 100 µM and inactive: 10 µM, respectively.
Turning to `O=C1CCN2CCCC12` (stereo not given), the GI50 in [2], in experiment [3], in experiment [4], in [6], in experiment [7] and in experiment [8] was inactive: > 100 µM each time. Besides, the GI50 in [9] is inactive: > 100 µM.
With `O[C@@H]1CCN2CCC[C@H]12`, the GI50 in experiment [1], in experiment [2], in [3], in experiment [4], in [6] and in [7] was inactive: > 100 µM each time. The GI50 in [8] and in experiment [9] was inactive: > 100 µM in each case.
For `COP(C)(=O)C(N)Cc1ccccc1` (stereo not given), the GI50 is inactive: > 100 µM in experiment [2]; inactive: > 100 µM in experiment [3]; inactive: 71.8 µM in [4]; inactive: > 100 µM in experiment [5]; inactive: > 100 µM in experiment [6]; inactive: > 100 µM in experiment [7]. Moreover, the GI50 in experiment [8] and in experiment [9] was inactive: > 100 µM in each case.
With `COc1ccc(C[N+](C)(CCCl)CCCl)c([N+](=O)[O-])c1`, the GI50 is inactive: > 100 µM in experiment [1]; inactive: > 100 µM in [2]; inactive: > 100 µM in [3]; inactive: 27.7 µM in experiment [4]; inactive: > 100 µM in [5]; inactive: > 100 µM in experiment [6]. Moreover, the GI50 in experiment [7] is inactive: > 100 µM; in experiment [8], inactive: > 100 µM; in experiment [9], inactive: 8.61 µM.
Take `O=[N+]([O-])C1([N+](=O)[O-])COCOC1`: the GI50 in [1] is inactive: > 100 µM; in experiment [2] it was inactive: > 100 µM; in experiment [3], inactive: 90.2 µM; in experiment [4] it was inactive: 22.1 µM; in experiment [5] it was inactive: > 100 µM; in [6] it was inactive: > 100 µM. Further, the values for the GI50 in experiment [7], in [8] and in experiment [9] were inactive: > 100 µM, inactive: > 100 µM and inactive: 29.8 µM, respectively.
Take `COc1ccc([N+](=O)[O-])c(C[N+](C)(CCCl)CCCl)c1`: the GI50 in [1], in [2], in experiment [3], in [4], in [5] and in experiment [6] was inactive: > 100 µM throughout. Besides, the GI50 was inactive: > 100 µM in experiment [7], inactive: 55.1 µM in experiment [8] and inactive: 5.7 µM in [9].
Turning to `O=[As](O)(O)O`, the GI50 in experiment [1], in [2], in experiment [3], in experiment [4], in experiment [5] and in experiment [6] was inactive: > 100 µM in each case. For the same molecule, the GI50 in experiment [7], in experiment [8] and in experiment [9] was inactive: > 100 µM in each case.
`COc1ccc2nccc(C=O)c2c1`: the GI50 in [1] was active: 0.379 µM; in experiment [2], inactive: 4.66 µM; in [3], inactive: 20.5 µM; in [4], inactive: 2.38 µM; in experiment [5], inactive: 20.7 µM; in experiment [6], inactive: 2.31 µM. Besides, the GI50 in experiment [7] is inactive: 2.22 µM; in [8] it was inactive: 14.6 µM; in experiment [9] it was active: 0.025 µM.
Regarding `C[S+](N)(=O)CCC(N)P(=O)(O)O` (stereo not given), the GI50 in experiment [2] was inactive: 73.5 µM; in experiment [3], inactive: > 100 µM; in experiment [4] it was inactive: > 100 µM; in experiment [5] it was inactive: > 100 µM; in experiment [6], inactive: > 100 µM; in [7], inactive: > 100 µM. Further, the GI50 in experiment [9] was inactive: > 100 µM.
As to `CC1=CC2O[C@@H]3C[C@H]4OC(=O)/C=C\C=C\C56OCCC7(OC7C(=O)OC[C@@]2(CC1)[C@]4(C)[C@]31CO1)C5OC(O)C6O` (stereo not given in full), the GI50 was active: < 0.001 µM in experiment [4] and active: 0.00159 µM in experiment [7].
For `Nc1nc2c(ncn2CCN(CCCl)CCCl)c(=O)[nH]1`, the GI50 in experiment [1], in [2], in experiment [3], in [4], in [6] and in [7] was inactive: > 100 µM in each case. The GI50 in experiment [10] and in [9] was inactive: > 100 µM in each case.
For the molecule `CCCCCCCCCCCCCNCC(C)O` (stereo not given), the GI50 in experiment [1] was inactive: 13.3 µM; in experiment [2] it was inactive: 13.6 µM; in [3] it was inactive: 16 µM; in experiment [4] it was inactive: 8.11 µM; in experiment [5], inactive: 18.4 µM; in experiment [6], inactive: 14.2 µM. The GI50 in experiment [7] was inactive: 15.6 µM; in experiment [8], inactive: 13.2 µM; in experiment [9] it was inactive: 3.09 µM.
For `O[C@H]1[C@@H](O)CC2CCN3Cc4cc5c(cc4[C@H]1C23)OCO5` (stereo not given in full), the GI50 in experiment [1], in experiment [2], in experiment [5], in [6], in experiment [7] and in [8] was inactive: > 100 µM in each case. Also, the GI50 in experiment [10] and in [9] was inactive: > 100 µM each time.
`O=[N+]([O-])C1([N+](=O)[O-])CCCc2nonc21`: the GI50 in experiment [1] was inactive: 39.8 µM; in [2], inactive: > 100 µM; in [3] it was inactive: 47.3 µM; in [4] it was inactive: 40.8 µM; in [5], inactive: > 100 µM; in experiment [6] it was inactive: 37.2 µM. Also, the GI50 was inactive: > 100 µM in experiment [7], inactive: 59.3 µM in experiment [8] and inactive: 26.5 µM in [9].
`Cc1ccc2ccc3ccc4ccccc4c3c2c1.O=C1c2cc([N+](=O)[O-])ccc2-c2c1cc([N+](=O)[O-])cc2[N+](=O)[O-]`: the GI50 in experiment [1] was inactive: 3.66 µM; in [2] it was inactive: 7.14 µM; in experiment [3], inactive: 1.26 µM; in experiment [4], inactive: 2.73 µM; in [5], inactive: 12.1 µM; in experiment [6], inactive: 4.47 µM. The GI50 was inactive: 7.89 µM in experiment [7], inactive: 2.61 µM in experiment [8] and active: 0.989 µM in experiment [9].
Turning to `Cc1[nH]c2c(C)c([N+](=O)[O-])c(C)c([N+](=O)[O-])c2c1[N+](=O)[O-]`, the GI50 in experiment [1] is inactive: 10.4 µM; in experiment [2], inactive: 6.49 µM; in [5], inactive: 14.4 µM; in [6], inactive: 11.8 µM; in experiment [7], inactive: 6.34 µM; in [8], inactive: 16.3 µM. For the same molecule, the GI50 in experiment [10] was inactive: 14.7 µM; in experiment [9], inactive: 6.47 µM.
Turning to `NNc1nc2nonc2nc1NN`, the GI50 was inactive: 64.1 µM in experiment [1]; inactive: > 100 µM in [2]; inactive: 75 µM in [3]; inactive: 41.7 µM in experiment [4]; inactive: > 100 µM in experiment [5]; inactive: 40.6 µM in [6]. Besides, the GI50 in [7] was inactive: 61.5 µM; in experiment [8], inactive: > 100 µM; in experiment [9], inactive: 36.6 µM.
Regarding `Cc1ccc([N+](=O)[O-])c(C[N+](C)(CCCl)CCCl)c1`, the GI50 in [1] was inactive: 22.9 µM; in experiment [2], inactive: 27 µM; in [3] it was inactive: 26.9 µM; in experiment [4], inactive: 10.4 µM; in experiment [5], inactive: 37.2 µM; in experiment [6], inactive: 11.6 µM. Further, the GI50 was inactive: 20.6 µM in experiment [7], inactive: 22.9 µM in [8] and inactive: 2.48 µM in experiment [9].
Consider `O=C1Nc2ccc([N+](=O)[O-])cc2/C1=N/Nc1ccc([N+](=O)[O-])cc1[N+](=O)[O-]`, for which the GI50 in experiment [1] was inactive: 21.8 µM; in experiment [2] it was inactive: 22.1 µM; in [3], inactive: 46.5 µM; in experiment [4] it was inactive: 19.5 µM; in experiment [5], inactive: 34 µM; in experiment [6], inactive: 33 µM. The GI50 in experiment [7] is inactive: 20.1 µM; in experiment [8] it was inactive: 44.5 µM; in experiment [10], inactive: 31.3 µM; in experiment [9], inactive: 28.4 µM.
As for `Cc1ccc2ccc(C)c(C)c2c1.O=[N+]([O-])c1cc([N+](=O)[O-])c(O)c([N+](=O)[O-])c1O`, the GI50 in experiment [1], in experiment [2], in experiment [3], in experiment [4], in experiment [5] and in experiment [7] was inactive: > 100 µM each time. Also, the results for the GI50 in experiment [8] and in experiment [9] were inactive: > 100 µM and active: 0.288 µM, respectively.
Turning to `ClCCSc1c2ccccc2nc2ccccc12`, the GI50 in experiment [1] was inactive: 4.73 µM; in [2], inactive: 14.4 µM; in [3] it was inactive: 16.2 µM; in [4] it was inactive: 17 µM; in [5], inactive: 26.8 µM; in experiment [6] it was inactive: 3.51 µM. Moreover, the figures for the GI50 in experiment [7], in experiment [8] and in experiment [9] were inactive: 25.8 µM, inactive: 20.1 µM and inactive: 1.98 µM, respectively.
